This data set has as its system female pattern hair loss (Sinclair stage 2-5). As to conditions: minoxidil recommenced as monotherapy after stopping the combination capsule; 2 patients.

Take `Nc1cc(N2CCCCC2)nc(N)[n+]1[O-]` [minoxidil]: the Recurrence of urticaria result is given as “did not recur”.

For the origin of these results see US10226462B2, “Detection and treatment of excessive hair shedding” (Samson Clinical Pty Ltd, priority 2014, dated 2019).
